# Assay results taken from PubChem BioAssay AID2174 (The Scripps Research Institute Molecular Screening Center, 2009).
# Chains of the proteins cited; added tags and fusions are not shown.
# UniProt O75608, whole entry: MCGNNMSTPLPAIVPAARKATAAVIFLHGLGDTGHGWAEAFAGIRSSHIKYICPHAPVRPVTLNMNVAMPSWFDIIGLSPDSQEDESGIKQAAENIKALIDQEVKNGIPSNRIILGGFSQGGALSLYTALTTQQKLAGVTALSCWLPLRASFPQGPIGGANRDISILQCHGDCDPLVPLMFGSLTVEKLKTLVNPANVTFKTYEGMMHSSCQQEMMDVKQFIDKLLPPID
# Only a part is listed here, and it is no random draw. Some of these compounds have results that are not shown, active ones among them. Activity calls are given as the source filed them.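 How the source made its calls: active means inhibition above the mean of all tested compounds plus 3 SD, set per campaign (cut at about 14% in these data); inactive means the rest.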
# Target: Acyl-protein thioesterase 1 (Homo sapiens) (UniProt O75608)
# Assay: inhibition of human lysophospholipase 1 – biochemical, fluorescence polarization, FP-Rh probe ABPP, counter-screen for PME1 inhibitor project, primary screen (AID 2174);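 further: inhibitors block serine hydrolase probe labeling of LYPLA1 so polarization falls; 0% = enzyme with DMSO and 100% = wells lacking LYPLA1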
# Conditions: recombinant LYPLA1, FP-Rh probe fluorescence polarization; at 5.9 µM; active compounds read high
row,Compound,inhibition
1,O=C(OC1CN2CCC1CC2)C(CO)(c1ccccc1)c1ccccc1 (centres undefined),inactive: -2.91%
2,COc1ccc(Br)c(C(=O)NCC2(N3CCCCC3)CCCCC2)c1,inactive: 1.95%
3,CN(C)c1cccc(C(=O)NCC2(N(C)C)CCCCC2)c1,inactive: 0.37%
4,CC(C)Oc1ccc(C(=O)NCC2(N(C)C)CCCCC2)cc1,inactive: -1.7%
5,CN(C)C1(CNC(=O)c2ccc(Br)cc2)CCCCC1,inactive: 2.37%
6,COc1cc(C(=O)NCC2(N(C)C)CCCCC2)c([N+](=O)[O-])cc1OC,inactive: -1.98%
7,COc1ccc(Cl)cc1C(=O)NCC1(N(C)C)CCCCC1,inactive: 0.65%
8,COc1cccc(C(=O)NCC2(N3CCCCC3)CCCCC2)c1,inactive: 0.23%
9,O=C(NCC1(N2CCCCC2)CCCCC1)c1cccc(Cl)c1,inactive: -2.55%
10,CN(C)C1CCCC1OC(=O)C(O)(c1ccccc1)c1ccccc1 (centres undefined),inactive: -1.8%
11,CN(C)c1ccc(C(=O)NCC2(N(C)C)CCCCC2)cc1,inactive: -0.85%
12,Cc1ccccc1C(=O)NCC1(N2CCCCC2)CCCCC1,inactive: -4.93%
13,O=C(NCC1(N2CCCCC2)CCCCC1)c1cc(F)c(F)cc1Cl,inactive: 0.29%
14,C=CCN1CCN(CCOC(=O)C(O)(c2ccccc2)c2ccccc2)CC1,inactive: 0.22%
15,O=C(NCC1(N2CCCCC2)CCCCC1)c1cccc(Br)c1,inactive: 0.99%
16,Cc1cc(C(=O)NCC2(N3CCCCC3)CCCCC2)ccc1[N+](=O)[O-],inactive: 2.48%
17,CCN1CCCC(OC(=O)C2(O)c3ccccc3C=Cc3ccccc32)C1 (centres undefined),inactive: -0.99%
18,COc1ccc(C(=O)NCC2(N(C)C)CCCCC2)cc1,inactive: -1.03%
19,O=C(NCC1(N2CCCCC2)CCCCC1)c1cc([N+](=O)[O-])ccc1Cl,inactive: 5.4%
20,CN1[C@@H]2CC[C@H]1CC(OC(=O)C(O)(c1ccccc1)c1ccccc1)C2 (some centres undefined),inactive: -0.09%
21,CC(C)N1C(=O)CC2(CCN(CCOC(=O)C(O)(c3ccccc3)c3ccccc3)CC2)C1=O,inactive: 1.21%
22,COc1cc(SC)ccc1C(=O)NCC1(N(C)C)CCCCC1,inactive: 0.64%
23,CCN(CC)CC(C)C(C)OC(=O)C(O)(c1ccccc1)c1ccccc1 (centres undefined),inactive: 4.21%
24,Cc1ccc(C(=O)NCC2(N3CCCCC3)CCCCC2)cc1,inactive: -1.25%
